The source of these data is ChEMBL document CHEMBL4765247, “Novel mouse GABA uptake inhibitors with enhanced inhibitory activity toward mGAT3/4 and their effect on pain threshold in mice” (Eur J Med Chem, 2020).

What is called IC50 is the point on the concentration scale where inhibition reaches its midpoint. A low value points to greater potency in that assay.

In the assay the target is T1, GABA transporter 4 (Mus musculus, UniProt P31650).
T1 sequence (P31650 whole entry): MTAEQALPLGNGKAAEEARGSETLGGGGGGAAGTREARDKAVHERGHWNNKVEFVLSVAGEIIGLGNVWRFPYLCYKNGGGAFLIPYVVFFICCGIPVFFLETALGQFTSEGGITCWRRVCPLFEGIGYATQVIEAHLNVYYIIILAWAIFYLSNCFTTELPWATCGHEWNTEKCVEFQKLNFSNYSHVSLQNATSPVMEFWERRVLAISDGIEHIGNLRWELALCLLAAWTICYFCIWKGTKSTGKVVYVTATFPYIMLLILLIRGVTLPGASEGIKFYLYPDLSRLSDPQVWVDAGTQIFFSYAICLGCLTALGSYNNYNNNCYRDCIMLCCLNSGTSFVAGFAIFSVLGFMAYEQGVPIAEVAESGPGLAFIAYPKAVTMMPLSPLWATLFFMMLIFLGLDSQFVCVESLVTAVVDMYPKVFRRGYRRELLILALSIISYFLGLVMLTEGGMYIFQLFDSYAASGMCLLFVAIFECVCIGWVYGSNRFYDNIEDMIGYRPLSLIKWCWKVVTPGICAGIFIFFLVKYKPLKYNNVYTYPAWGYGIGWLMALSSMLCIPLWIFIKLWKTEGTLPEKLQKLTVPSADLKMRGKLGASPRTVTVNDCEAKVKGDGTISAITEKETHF
In words: Inhibition of mouse GTA4 receptor.

`NCCCC(=O)O` [GAMMA-AMINOBUTYRIC ACID]: inhibition was half-maximal at 33.1 µM (IC50).
